# Data taken from PubChem BioAssay (NCI).
#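 48-hour exposure; five concentrations; linearly interpolated endpoints. GI50 is the concentration that inhibits growth by half. TGI is the concentration that stops growth completely.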
# Tests used:
# Experiment in all cases: NCI tumour cell line growth inhibition, 48 h
# 786-0 renal = system: 786-0 renal
# A498 renal = system: A498 renal
# A549 NSCLC = system: A549 NSCLC
# ACHN renal = system: ACHN renal
# CAKI-1 renal = system: CAKI-1 renal
# CCRF-CEM leukemia = system: CCRF-CEM leukemia
# COLO 205 colon = system: COLO 205 colon
# DLD-1 colon = system: DLD-1 colon
# DMS 114 small cell lung = system: DMS 114 small cell lung
# DMS 273 small cell lung = system: DMS 273 small cell lung
# EKVX NSCLC = system: EKVX NSCLC
# HCC-2998 colon = system: HCC-2998 colon
# HCT-116 colon = system: HCT-116 colon
# HCT-15 colon = system: HCT-15 colon
# HL-60(TB) leukemia = system: HL-60(TB) leukemia
# HOP-18 NSCLC = system: HOP-18 NSCLC
# HOP-62 NSCLC = system: HOP-62 NSCLC
# HOP-92 NSCLC = system: HOP-92 NSCLC
# HT29 colon = system: HT29 colon
# IGROV1 ovarian = system: IGROV1 ovarian
# K-562 leukemia = system: K-562 leukemia
# KM12 colon = system: KM12 colon
# KM20L2 colon = system: KM20L2 colon
# LOX IMVI melanoma = system: LOX IMVI melanoma
# LXFL 529 NSCLC = system: LXFL 529 NSCLC
# M14 melanoma = system: M14 melanoma
# M19-MEL melanoma = system: M19-MEL melanoma
# MALME-3M melanoma = system: MALME-3M melanoma
# MOLT-4 leukemia = system: MOLT-4 leukemia
# NCI-H226 lung = system: NCI-H226 lung
# NCI-H23 lung = system: NCI-H23 lung
# NCI-H322M lung = system: NCI-H322M lung
# NCI-H460 lung = system: NCI-H460 lung
# NCI-H522 lung = system: NCI-H522 lung
# OVCAR-3 ovarian = system: OVCAR-3 ovarian
# OVCAR-4 ovarian = system: OVCAR-4 ovarian
# OVCAR-5 ovarian = system: OVCAR-5 ovarian
# OVCAR-8 ovarian = system: OVCAR-8 ovarian
# RPMI-8226 leukemia = system: RPMI-8226 leukemia
# RXF 393 renal = system: RXF 393 renal
# RXF-631 renal = system: RXF-631 renal
# SF-268 CNS = system: SF-268 CNS
# SF-295 CNS = system: SF-295 CNS
# SF-539 CNS = system: SF-539 CNS
# SK-MEL-2 melanoma = system: SK-MEL-2 melanoma
# SK-MEL-28 melanoma = system: SK-MEL-28 melanoma
# SK-MEL-5 melanoma = system: SK-MEL-5 melanoma
# SK-OV-3 ovarian = system: SK-OV-3 ovarian
# SN12C renal = system: SN12C renal
# SNB-19 CNS = system: SNB-19 CNS
# SNB-75 CNS = system: SNB-75 CNS
# SNB-78 CNS = system: SNB-78 CNS
# SR leukemia = system: SR leukemia
# SW-620 colon = system: SW-620 colon
# TK-10 renal = system: TK-10 renal
# U251 CNS = system: U251 CNS
# UACC-257 melanoma = system: UACC-257 melanoma
# UACC-62 melanoma = system: UACC-62 melanoma
# UO-31 renal = system: UO-31 renal
# XF 498 CNS = system: XF 498 CNS
smiles,measurement,setting,value
O=[N+]([O-])N1C2OC3OC2N([N+](=O)[O-])C2OC3OC21,GI50,786-0 renal,> 100 µM
same,TGI,786-0 renal,> 100 µM
same,GI50,A498 renal,> 100 µM
same,TGI,A498 renal,> 100 µM
same,GI50,A549 NSCLC,> 100 µM
same,TGI,A549 NSCLC,> 100 µM
same,GI50,ACHN renal,> 100 µM
same,TGI,ACHN renal,> 100 µM
same,GI50,CAKI-1 renal,> 100 µM
same,TGI,CAKI-1 renal,> 100 µM
same,GI50,CCRF-CEM leukemia,62.8 µM
same,TGI,CCRF-CEM leukemia,> 100 µM
same,GI50,COLO 205 colon,43.9 µM
same,TGI,COLO 205 colon,61.4 µM
same,GI50,DLD-1 colon,42.8 µM
same,TGI,DLD-1 colon,63.7 µM
same,GI50,DMS 114 small cell lung,49 µM
same,TGI,DMS 114 small cell lung,76.3 µM
same,GI50,DMS 273 small cell lung,97.2 µM
same,TGI,DMS 273 small cell lung,> 100 µM
same,GI50,EKVX NSCLC,> 100 µM
same,TGI,EKVX NSCLC,> 100 µM
same,GI50,HCC-2998 colon,> 100 µM
same,TGI,HCC-2998 colon,> 100 µM
same,GI50,HCT-116 colon,45.5 µM
same,TGI,HCT-116 colon,62.6 µM
same,GI50,HCT-15 colon,56.2 µM
same,TGI,HCT-15 colon,> 100 µM
same,GI50,HL-60(TB) leukemia,84.6 µM
same,TGI,HL-60(TB) leukemia,> 100 µM
same,GI50,HOP-18 NSCLC,> 100 µM
same,TGI,HOP-18 NSCLC,> 100 µM
same,GI50,HOP-62 NSCLC,> 100 µM
same,TGI,HOP-62 NSCLC,> 100 µM
same,GI50,HOP-92 NSCLC,> 100 µM
same,TGI,HOP-92 NSCLC,> 100 µM
same,GI50,HT29 colon,> 100 µM
same,TGI,HT29 colon,> 100 µM
same,GI50,IGROV1 ovarian,> 100 µM
same,TGI,IGROV1 ovarian,> 100 µM
same,GI50,K-562 leukemia,> 100 µM
same,TGI,K-562 leukemia,> 100 µM
same,GI50,KM12 colon,> 100 µM
same,TGI,KM12 colon,> 100 µM
same,GI50,KM20L2 colon,> 100 µM
same,TGI,KM20L2 colon,> 100 µM
same,GI50,LOX IMVI melanoma,50 µM
same,TGI,LOX IMVI melanoma,84.3 µM
same,GI50,LXFL 529 NSCLC,> 100 µM
same,TGI,LXFL 529 NSCLC,> 100 µM
same,GI50,M14 melanoma,> 100 µM
same,TGI,M14 melanoma,> 100 µM
same,GI50,M19-MEL melanoma,> 100 µM
same,TGI,M19-MEL melanoma,> 100 µM
same,GI50,MALME-3M melanoma,> 100 µM
same,TGI,MALME-3M melanoma,> 100 µM
same,GI50,MOLT-4 leukemia,> 100 µM
same,TGI,MOLT-4 leukemia,> 100 µM
same,GI50,NCI-H226 lung,> 100 µM
same,TGI,NCI-H226 lung,> 100 µM
same,GI50,NCI-H23 lung,> 100 µM
same,TGI,NCI-H23 lung,> 100 µM
same,GI50,NCI-H322M lung,> 100 µM
same,TGI,NCI-H322M lung,> 100 µM
same,GI50,NCI-H460 lung,63.7 µM
same,TGI,NCI-H460 lung,> 100 µM
same,GI50,NCI-H522 lung,> 100 µM
same,TGI,NCI-H522 lung,> 100 µM
same,GI50,OVCAR-3 ovarian,> 100 µM
same,TGI,OVCAR-3 ovarian,> 100 µM
same,GI50,OVCAR-4 ovarian,> 100 µM
same,TGI,OVCAR-4 ovarian,> 100 µM
same,GI50,OVCAR-5 ovarian,> 100 µM
same,TGI,OVCAR-5 ovarian,> 100 µM
same,GI50,OVCAR-8 ovarian,> 100 µM
same,TGI,OVCAR-8 ovarian,> 100 µM
same,GI50,RPMI-8226 leukemia,46.4 µM
same,TGI,RPMI-8226 leukemia,68.2 µM
same,GI50,RXF 393 renal,31.6 µM
same,TGI,RXF 393 renal,31.6 µM
same,GI50,RXF-631 renal,> 100 µM
same,TGI,RXF-631 renal,> 100 µM
same,GI50,SF-268 CNS,> 100 µM
same,TGI,SF-268 CNS,> 100 µM
same,GI50,SF-295 CNS,> 100 µM
same,TGI,SF-295 CNS,> 100 µM
same,GI50,SF-539 CNS,> 100 µM
same,TGI,SF-539 CNS,> 100 µM
same,GI50,SK-MEL-2 melanoma,> 100 µM
same,TGI,SK-MEL-2 melanoma,> 100 µM
same,GI50,SK-MEL-28 melanoma,> 100 µM
same,TGI,SK-MEL-28 melanoma,> 100 µM
same,GI50,SK-MEL-5 melanoma,> 100 µM
same,TGI,SK-MEL-5 melanoma,> 100 µM
same,GI50,SK-OV-3 ovarian,> 100 µM
same,TGI,SK-OV-3 ovarian,> 100 µM
same,GI50,SN12C renal,> 100 µM
same,TGI,SN12C renal,> 100 µM
same,GI50,SNB-19 CNS,> 100 µM
same,TGI,SNB-19 CNS,> 100 µM
same,GI50,SNB-75 CNS,> 100 µM
same,TGI,SNB-75 CNS,> 100 µM
same,GI50,SNB-78 CNS,> 100 µM
same,TGI,SNB-78 CNS,> 100 µM
same,GI50,SR leukemia,64.9 µM
same,TGI,SR leukemia,> 100 µM
same,GI50,SW-620 colon,41.6 µM
same,TGI,SW-620 colon,59.5 µM
same,GI50,TK-10 renal,> 100 µM
same,TGI,TK-10 renal,> 100 µM
same,GI50,U251 CNS,> 100 µM
same,TGI,U251 CNS,> 100 µM
same,GI50,UACC-257 melanoma,> 100 µM
same,TGI,UACC-257 melanoma,> 100 µM
same,GI50,UACC-62 melanoma,> 100 µM
same,TGI,UACC-62 melanoma,> 100 µM
same,GI50,UO-31 renal,> 100 µM
same,TGI,UO-31 renal,> 100 µM
same,GI50,XF 498 CNS,> 100 µM
same,TGI,XF 498 CNS,> 100 µM
